Laboratory results: patent publication US8415376B2, “Inhibitors of PI3 kinase” (Amgen Inc., priority 2008, dated 2013)

Protein sequences, listed by entry. Tags and fused reporters are not part of them.
UniProt P42336, whole entry: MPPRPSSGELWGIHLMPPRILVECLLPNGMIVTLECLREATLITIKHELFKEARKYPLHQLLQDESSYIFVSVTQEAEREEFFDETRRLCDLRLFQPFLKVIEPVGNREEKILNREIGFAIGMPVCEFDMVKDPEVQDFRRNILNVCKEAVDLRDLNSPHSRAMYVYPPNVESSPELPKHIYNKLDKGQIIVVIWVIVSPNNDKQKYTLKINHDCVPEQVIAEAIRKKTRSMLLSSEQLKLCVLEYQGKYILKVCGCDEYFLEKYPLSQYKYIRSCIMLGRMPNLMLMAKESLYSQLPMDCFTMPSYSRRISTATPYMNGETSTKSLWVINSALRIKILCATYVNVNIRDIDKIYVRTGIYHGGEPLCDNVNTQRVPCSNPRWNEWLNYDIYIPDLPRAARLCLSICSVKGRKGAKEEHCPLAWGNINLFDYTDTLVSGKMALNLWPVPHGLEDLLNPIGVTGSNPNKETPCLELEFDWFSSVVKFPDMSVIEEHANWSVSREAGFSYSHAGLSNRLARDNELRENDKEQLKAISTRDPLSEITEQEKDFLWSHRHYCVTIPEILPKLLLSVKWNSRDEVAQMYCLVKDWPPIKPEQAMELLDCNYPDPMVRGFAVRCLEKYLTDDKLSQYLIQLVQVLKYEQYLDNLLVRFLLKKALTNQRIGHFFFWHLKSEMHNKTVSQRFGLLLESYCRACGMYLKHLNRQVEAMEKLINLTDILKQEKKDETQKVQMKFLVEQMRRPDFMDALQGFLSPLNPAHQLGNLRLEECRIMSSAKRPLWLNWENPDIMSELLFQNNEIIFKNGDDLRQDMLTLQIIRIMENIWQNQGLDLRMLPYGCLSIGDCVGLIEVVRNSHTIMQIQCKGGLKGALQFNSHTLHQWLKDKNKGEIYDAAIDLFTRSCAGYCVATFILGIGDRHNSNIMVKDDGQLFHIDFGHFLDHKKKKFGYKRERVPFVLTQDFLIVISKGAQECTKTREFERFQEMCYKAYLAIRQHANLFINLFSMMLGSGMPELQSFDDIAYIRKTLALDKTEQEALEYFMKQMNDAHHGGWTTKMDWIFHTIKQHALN

target: T1, PI3Kα (Homo sapiens, UniProt P42336); assay: In vitro PI3K AlphaScreen assay; type: biochemical; conditions: average if run more than once
T1 construct: Full length p110 subunits of PI3K α, β and δ, N-terminally labeled with polyHis tag; polyHis (N); made in house; host or cells: Sf9 insect cells (baculovirus)

SMILES | Ki [µM]
O=S(=O)(Nc1cc(-c2ccc3nccc(N4CCN(Cc5ccncc5)CC4)c3c2)cnc1Cl)c1ccc(F)cc1 [Example 89, N-(2-chloro-5-(4-(4-(4-pyridinylmethyl)-1-piperazinyl)-6-quinolinyl)-3-pyridinyl)-4-fluorobenzenesulfonamide] | 0.0025
CN(C)c1ccnc2ccc(-c3cnc(Cl)c(NS(=O)(=O)c4ccc(F)cc4)c3)cc12 [Example 97, N-(2-chloro-5-(4-(dimethylamino)-6-quinolinyl)-3-pyridinyl)-4-fluorobenzenesulfonamide] | 0.0086
COCCNc1ccnc2ccc(-c3cnc(Cl)c(NS(=O)(=O)c4ccc(F)cc4)c3)cc12 [Example 98, N-(2-chloro-5-(4-((2-methoxyethyl)amino)-6-quinolinyl)-3-pyridinyl)-4-fluorobenzenesulfonamide] | 0.0889

target: T1, PI3Kα; assay: In vitro PI3 kinase enzyme assay (PI3K ATP loss), alpha; type: biochemical; conditions: average if run more than once; read-out: ATP Loss (PBKα) IC50 μM (Avg)

SMILES | IC50 [µM]
O=S(=O)(Nc1cc(-c2ccc3nccc(Cl)c3c2)cnc1Cl)c1ccc(F)cc1 [Example 2, N-(2-chloro-5-(4-chloro-6-quinolinyl)-3-pyridinyl)-4-fluorobenzenesulfonamide] | 0.0062
COCCOc1ccnc2ccc(-c3cnc(Cl)c(NS(=O)(=O)c4ccc(F)cc4)c3)cc12 [Example 31, N-(2-chloro-5-(4-(2-methoxyethoxy)-6-quinolinyl)-3-pyridinyl)-4-fluorobenzenesulfonamide] | 0.0075
COc1ncccc1-c1ccnc2ccc(-c3cnc(Cl)c(NS(=O)(=O)c4ccc(F)cc4)c3)cc12 [Example 35, N-(2-chloro-5-(4-(2-methoxy-3-pyridinyl)-6-quinolinyl)-3-pyridinyl)-4-fluorobenzenesulfonamide] | 0.0077
